Biological target: T1, Arachidonate 5-lipoxygenase-activating protein (Homo sapiens, UniProt A0A087WW23)
T1 sequence (A0A087WW23 whole entry): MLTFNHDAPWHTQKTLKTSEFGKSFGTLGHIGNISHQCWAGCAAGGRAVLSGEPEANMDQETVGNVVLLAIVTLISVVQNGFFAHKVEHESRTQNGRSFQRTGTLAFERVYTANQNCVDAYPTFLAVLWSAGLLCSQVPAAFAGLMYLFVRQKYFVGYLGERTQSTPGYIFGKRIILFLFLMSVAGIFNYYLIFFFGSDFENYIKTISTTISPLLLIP
Test: Homogeneous Time Resolved Fluorescence Assay

For CCC(CC)(Cc1nc2ccc(OCc3ccc(C)cn3)cc2n1Cc1ccc(N2CCC(F)(F)CC2)cc1)C(=O)O [US8952177, 170], the Ki was 100 nM.

— BindingDB's records for patent US8952177 (Janssen Pharmaceutica, 2015)
